Data on one compound can be found in PubChem BioAssay AID1552 (Sanford-Burnham Center for Chemical Genomics, 2009).

The chains behind the UniProt entries cited, without tags or fusion partners. Where a name states a change or a piece, a line headed by the entry shows the natural chain unless it says otherwise.
UniProt P61088: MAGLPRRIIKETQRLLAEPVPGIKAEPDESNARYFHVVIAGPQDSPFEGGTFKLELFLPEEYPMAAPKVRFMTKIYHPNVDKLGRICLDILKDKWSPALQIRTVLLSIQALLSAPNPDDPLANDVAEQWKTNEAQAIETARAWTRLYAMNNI

Calls of active or inactive are those of the source. The rule behind the calls is not given here.

For the assay, the target named is Ubiquitin-conjugating enzyme E2 N (Homo sapiens) (UniProt P61088). As to the kind of experiment: NMR detection of UBE2N ligand binding – biophysical, purified protein (AID 1552). To be noted: NMR binding to purified UBE2N.

For `Cc1c2non([O-])c-2c(C)[n+](=O)[n+]1[O-]`, the Kd is inactive: > 4 mM.

As usually defined, the Kd is the free concentration of one partner at which half of the binding sites on the other are occupied at equilibrium, for simple one-to-one binding.
